In patent US11464866B2, “Pharmaceutical composition containing macromolecular drug” (BIODYNAMIC RESEARCH FOUNDATION, priority 2016, dated 2022):

Tests used:
[1] = Stability of P-THP in solution (free THP by HPLC, 488 nm); assay type: physicochemical; details: both in arginine buffers and sodium bicarbonate buffers
Excerpt: Sample: […] Method: […] Then, the decomposition product, i.e. free pirarubicin (THP), was separated by HPLC (High Performance Liquid Chromatography) (column: JSK Gel SW3000, Detection: Absorbance 488 nm, Elution: a mixed solution of 80% methanol and 20% 0.1 M sodium acetate at pH 7.0) and quantified by absorbance at 488 nm.

[2] = Dissolution time of P-THP dry powder product in aqueous solutions; details: with dissolution-enhancing and/or stabilizing agent such as arginine

polyhydroxypropylmethacrylamide (HPMA)-bound THP [P-THP]
pH of best stability [1]: ~8.5 | water-solubility [2]: greatly improved
